The numbers were not newly measured in US7220743B2 (dated 2007), which cites them from elsewhere.

Amino acid sequences for entries named in this document (tags omitted).
UniProt P47746, whole entry: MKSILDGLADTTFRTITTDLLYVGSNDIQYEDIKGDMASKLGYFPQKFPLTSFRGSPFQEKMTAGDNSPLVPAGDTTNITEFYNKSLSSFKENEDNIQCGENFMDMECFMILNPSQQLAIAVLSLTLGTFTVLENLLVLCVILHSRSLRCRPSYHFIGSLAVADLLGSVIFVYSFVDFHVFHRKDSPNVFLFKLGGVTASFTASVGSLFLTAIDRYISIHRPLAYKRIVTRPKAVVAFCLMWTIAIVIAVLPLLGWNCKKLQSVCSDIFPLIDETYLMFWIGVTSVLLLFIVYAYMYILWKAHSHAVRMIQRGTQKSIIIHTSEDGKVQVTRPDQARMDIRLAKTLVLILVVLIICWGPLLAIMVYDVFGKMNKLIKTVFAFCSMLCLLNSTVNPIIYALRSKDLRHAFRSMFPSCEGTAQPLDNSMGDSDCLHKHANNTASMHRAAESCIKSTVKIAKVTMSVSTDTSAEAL

For this series, the target named is CB1 receptor (Mus musculus, UniProt P47746). The note with it: wild-type but not knockout mice, after temporary food restriction; cited from earlier work.

The structures appear in SMILES notation.

Consider `Cc1c(C(=O)NN2CCCCC2)nn(-c2ccc(Cl)cc2Cl)c1-c1ccc(Cl)cc1` [SR-141716], for which the food intake entry is given as “reduces food intake in wild-type but not knockout mice”.
